Binding of CDR-mutated scFvs to a peptide of the spike HR2 region

Reference: Li et al. 2023, doi:10.1038/s41467-023-39022-2. File: FLAb, binding data.

The target is the same throughout: PDVDLGDISGINAS, from the HR2 region of SARS-CoV-2 spike.

Parent: Ab-14, a human scFv built as VH, the linker GGGGSGGGGSGGGGS, VL. Only the CDRs of the light chain vary.
VH: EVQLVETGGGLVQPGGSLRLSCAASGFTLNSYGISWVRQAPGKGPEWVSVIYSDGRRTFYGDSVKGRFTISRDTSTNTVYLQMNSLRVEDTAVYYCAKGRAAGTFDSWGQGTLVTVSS
VL: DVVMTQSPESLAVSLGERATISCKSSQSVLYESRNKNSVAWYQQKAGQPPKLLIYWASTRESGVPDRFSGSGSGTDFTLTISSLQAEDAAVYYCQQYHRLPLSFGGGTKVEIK

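The parent was found by panning a naive human phage display library on the peptide. This is the validation round: designs drawn from the data on random variants, tested in the same kind of assay. Their group label is 14L_GP_Gibbs (GP: Gaussian process model; Gibbs: Gibbs sampling; a sequence that several methods proposed may carry one label only). AlphaSeq pools MATa yeast showing the antibodies with MATalpha yeast showing the peptide. Pairs that bind mate more often; barcode pairs of the diploids are counted by sequencing. A regression on co-assayed BCL2-family reference pairs converts the normalised counts of each replicate to an apparent Kd. Each pool was mated in six replicate cultures.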

Variants are written as CDR1, CDR2 and CDR3 of the light chain (limits as in the source). Parent: KSSQSVLYESRNKNSVA, WASTRES, QQYHRLPLS.
Numbers give log10(Kd / nM), so 0 is 1 nM and 3 is 1 µM. Smaller is tighter.
"nd" marks a missing value. The strain was present, yet no cells mated with the target were sequenced in that replicate, which points to weak or no binding.
Of ten entries with the parent sequence, four were seen in most replicates (averages 0.34 to 2.37), three in one and three in none, so single entries are noisy.
The range of this assay differs from that of the first round, and the authors advise against merging the two.
Three control strains display no target. For all light chain designs, 4% of the pairings with them gave a signal, with a median of 2.64 and one signal in twenty below 1.59, so weak values seen in few replicates may be background. The control count says in how many pairings with the empty strains this scFv gave a signal, with their mean in brackets.
In the paper, a design with two or fewer of six values counts as a poor binder.

CDR-L1 | CDR-L2 | CDR-L3 | replicates, log10 nM | empty controls
KFQQSQLYESRNKNSVA | NASCRCS | QQYHRLPLS | 0.53 / 0.38 / 0.44 / 0.20 / 0.35 / 0.94 | 0/18
KSSGSQQYEDRNSNSVA | HASQRES | QQYHRLPLS | 0.90 / 0.93 / 0.84 / 0.87 / 0.80 / 1.05 | 0/18
HSSWSVDDESRNDNSVA | DASTRED | QQYHRLPLS | -0.31 / -0.52 / -0.49 / -0.27 / -0.45 / 0.17 | 1/18 (1.65)
KCSISVEQLSRQKNSVA | HASTRES | QQYHRLPLS | 0.66 / 0.60 / 0.74 / 0.41 / 0.58 / 0.83 | 3/18 (3.54)
KISQSFLMESMNKNSVA | NASTRIW | QQYHRLPLS | 0.14 / 0.42 / -0.10 / 0.04 / 0.06 / 0.20 | 0/18
KIEGSMLYESRNKNSVA | NASTREV | QQYHRLPLS | 0.20 / 0.29 / 0.03 / 0.10 / 0.12 / 0.21 | 1/18 (2.16)
KLQQSNLYESRNTNSVA | QASQREQ | QQYHRLPLS | -0.11 / 0.26 / 0.00 / -0.23 / 0.14 / 0.11 | 0/18
KLRLSQEYESRQKNSVA | NASTRCV | QQYHRLPLS | 0.43 / 0.29 / 0.37 / 0.32 / 0.50 / 0.43 | 1/18 (2.59)
KVSNSVMLESRNWNAVA | EASTRES | QDYHRLPLS | 0.23 / 0.13 / -0.08 / -0.09 / -0.11 / 0.16 | 0/18
KVSVSQPYESRNKNSVA | NASTREE | QQYHRLPLS | -0.36 / -0.38 / -0.69 / -0.64 / -0.54 / -0.35 | 1/18 (1.32)
KLSQSQLYESRNVNAVA | NASQRMS | QQYHRLPLS | 0.04 / -0.10 / -0.18 / -0.11 / -0.15 / -0.06 | 1/18 (2.70)
KVQQSVPYGDRNKNSVA | HASTRSS | QDYHRLPLS | 0.76 / 0.54 / 0.54 / 1.00 / 0.84 / 0.84 | 0/18
KLSWSVEYEDRLSNSVA | NASQREW | QQYHRLPLS | 0.33 / 0.16 / 0.06 / 0.01 / 0.03 / 0.20 | 2/18 (3.33)
KLDQSVGYESRNKNNVA | GGSQRES | QQYHRLPLS | 0.81 / 0.16 / 0.39 / 0.20 / 0.23 / 0.52 | 1/18 (2.43)
KLDGSDNYESRNKNSVA | EASERES | QAYHRLPLS | 0.90 / 0.77 / 0.52 / 0.40 / 0.96 / 0.71 | 1/18 (2.88)
KVSPSVLYEDRNWNSVA | QASQRCS | QQYHRLPLS | -0.05 / -0.29 / -0.16 / -0.33 / -0.43 / -0.09 | 1/18 (2.36)
KLDQSYLYESRNKNSVA | EASEREV | QQYHRLPLY | 0.16 / 0.04 / -0.03 / 0.34 / 0.12 / 0.00 | 1/18 (2.73)
KLSQSNKYESRMKNSVA | NASQRMQ | QQYHRLPLS | 0.88 / 0.84 / 0.57 / 0.41 / 0.68 / 0.51 | 4/18 (3.84)
KFQQSWLYESRMQNNVA | NASLRES | QQYHRLPLS | 0.05 / 0.06 / -0.03 / -0.01 / -0.15 / -0.01 | 2/18 (2.55)
KLSTSVLYESRMCNAVA | AASTREE | QQYHRLPLS | 0.02 / -0.08 / -0.17 / -0.14 / -0.16 / 0.10 | 0/18
KQQQSALMEERNFNSVA | HASTRES | QQYHRLPLS | 0.71 / 0.41 / 0.75 / 0.39 / 0.08 / 0.80 | 1/18 (2.89)
ALSQLELGESRNWNSVA | NASTREK | QQYHRLPLS | 0.40 / 0.40 / 0.46 / 0.28 / 0.30 / 0.29 | 0/18
KISGSELEESRNKNSVA | WASVREA | QQYHRLPLS | 0.75 / 0.62 / 0.53 / 0.67 / 1.06 / 0.74 | 4/18 (2.37)
KVMQSNWYESRWPNSVA | NASQRES | QQYHRLPLS | 0.70 / 0.31 / 0.43 / 0.29 / 0.42 / 0.64 | 3/18 (3.03)
KLSMSVLMEQRNHNSVA | SANTREE | QQYHRLPLS | 0.47 / 0.08 / -0.24 / -0.30 / -0.07 / 0.09 | 1/18 (2.26)
KVSNQADYEDRMKNSVA | SASTRES | QQYHRLPLS | 0.27 / 0.63 / 0.36 / 0.27 / 0.22 / 0.34 | 1/18 (2.51)
KLQFSALMLQRNKNSVA | SASTRES | QQYHRLPLS | 0.42 / 0.44 / 0.24 / 0.33 / 0.26 / 0.44 | 1/18 (3.25)
KQPVLGLYGSRNKNSVA | EASTRES | QQYHRLPLS | -0.09 / -0.13 / -0.22 / -0.52 / 0.11 / -0.27 | 0/18
KVSIMDDGGDRNKNSVA | HASLRES | QQYHRLPLS | 0.13 / -0.24 / -0.08 / -0.53 / -0.20 / -0.06 | 1/18 (2.04)
KQSPQDDYQSRNKNQVA | DASTRES | QQYHRLPLS | 0.20 / -0.09 / 0.01 / 0.09 / -0.12 / 0.25 | 0/18
KIQQSELYEDRVKNSVA | NASDRMS | QQYHRLPLS | 0.57 / 0.35 / 0.38 / 0.29 / 0.24 / 0.27 | 2/18 (3.22)
KVSQSMLIESRNKNSVA | NASTREH | QQYERLPLS | 0.12 / -0.33 / -0.31 / -0.22 / -0.13 / -0.21 | 0/18
KVSQSELYESRNANNVA | NASTREN | QQYHRLPLS | 0.09 / -0.18 / -0.29 / -0.41 / -0.35 / -0.36 | 2/18 (2.21)
KMSQSVLGLDRNWNNVA | YASTREM | QQYHRLPLS | 0.60 / 0.04 / -0.04 / 0.26 / 0.44 / 0.70 | 0/18
KGMGSMLYEQRMKNSVA | NASQRMS | QQYHRLPLS | 0.21 / 0.24 / 0.32 / 0.10 / -0.11 / 0.38 | 1/18 (2.25)
KLRQSCEYEDRNKNSVA | MASQRCS | QQYHRLPLS | 0.27 / 0.25 / 0.37 / -0.02 / 0.05 / 0.17 | 2/18 (3.26)
KVSQSHLYEERNDNNVA | QASYRES | QQYHRLPLS | 0.50 / -0.05 / 0.32 / -0.63 / -0.71 / 0.30 | 0/18
KIDQWKLGESRNKNSVA | DASQRMS | QQYHRLPLS | -0.41 / -0.47 / -0.49 / -0.51 / -0.78 / -0.59 | 1/18 (2.50)
KLSLSVELESRLKNSVA | HASTREE | QQYHRLPLS | -0.37 / -0.09 / -0.69 / -0.05 / -0.59 / 0.13 | 0/18
KSSQSQDYGDRNSNSVA | NASQREH | QQYHRLPLS | 0.13 / -0.01 / 0.14 / -0.09 / -0.18 / 0.02 | 1/18 (3.35)
KISQFYEYESRNKNSVA | SASTRMV | QQYHRLPLS | 0.36 / 0.30 / 0.10 / 0.23 / 0.17 / 0.49 | 5/18 (4.04)
KLSQSVMLESRNKNAVA | EASTRMS | QDYHRLPLS | -0.18 / 0.08 / -0.14 / 0.51 / -0.58 / 0.68 | 1/18 (1.80)
KISQQYLGESRNMNSVA | NASTREA | QQYHRLPLS | -0.03 / -0.01 / -0.05 / -0.21 / 0.08 / 0.52 | 1/18 (1.65)
KSSPSVLYESRNKASVA | DASTRMS | QQYHRLPLS | 1.17 / 0.47 / 2.02 / 0.49 / 0.39 / 0.67 | 0/18
KLQQSVEYESRNKNNVA | EGSQREV | QQYHRLPLS | -0.65 / -0.74 / -0.68 / -0.89 / -0.77 / -0.99 | 2/18 (2.17)
KLDFLGPYEQRNKNSVA | SASTRCS | QQYHRLPLS | nd / nd / nd / nd / nd / nd | 0/18

Repeated from above, the 4 best binders with a signal in all replicates:

| CDR-L1 | CDR-L2 | CDR-L3 | replicates, log10 nM | empty controls |
|---|---|---|---|---|
| KLQQSVEYESRNKNNVA | EGSQREV | QQYHRLPLS | -0.65 / -0.74 / -0.68 / -0.89 / -0.77 / -0.99 | 2/18 (2.17) |
| KIDQWKLGESRNKNSVA | DASQRMS | QQYHRLPLS | -0.41 / -0.47 / -0.49 / -0.51 / -0.78 / -0.59 | 1/18 (2.50) |
| KVSVSQPYESRNKNSVA | NASTREE | QQYHRLPLS | -0.36 / -0.38 / -0.69 / -0.64 / -0.54 / -0.35 | 1/18 (1.32) |
| HSSWSVDDESRNDNSVA | DASTRED | QQYHRLPLS | -0.31 / -0.52 / -0.49 / -0.27 / -0.45 / 0.17 | 1/18 (1.65) |